In paper PMC8240970, “Orally delivered polycurcumin responsive to bacterial reduction for targeted therapy of inflammatory bowel disease” (Drug Delivery, 2017):

Assays:
[1] = Pharmacokinetic study after oral administration; set-up: species or system Sprague–Dawley (SD) rats; settings: rat, in vivo, 50 mg/kg
Experimental: Pharmacokinetics of PCur and Cur suspension were tested in SD rats, which were randomly divided into two study groups with six in each group. PCur and Cur suspension were given orally at a dose of 50 mg/kg of Cur. Three hundred microliter of blood samples were collected at 5, 10, 15, 30 and 45 min, 1, 2, 4, 8, 12 and 24 h post oral gavage and centrifuged at 12 000 rpm for 10 min. The supernatant plasma was collected and stored at −20 °C for UPLC–MS/MS analysis. The concentration of Cur was determined by a Waters ACQUITY UPLC system using a Xevo Triple Quadrupole MS equipped with an electrospray ionization (ESI) interface (Waters Co., Milford, MA). One hundred microliter plasma was mixed with 50 μL chloramphenicol (IS) and 50 μL acetonitrile, followed by vortexing for 3 min, and centrifuged at 12 000 rpm for 10 min. […] An aliquot of 5 μL was injected into the UPLC–MS/MS for analysis. Pharmacokinetic parameters were calculated using DAS 2.1 software (BioGuider Co., Shanghai, China).

PEG-ss-curcumin [PCur]
cumulative drug release (rat cecal suspension, within 24 h): ~70% | release of Cur (sterile cecal content (control)): significantly slower | T1/2 relative to Cur suspension [1]: 1.74 fold
